Assay results: article PMC4265264 (Hepatology (Baltimore, Md.), 2014)

Tested on: HepaRG cells
Experiment: MTT cell viability assay
Assay type: cell-based, human
Conditions: 4 μM CsA, protocol Fig. 1A, Fig. S1A

cyclosporin A [CsA]
Cytotoxicity (cell viability, MTT): without causing cytotoxicity
